Data published in PubChem BioAssay AID1259400 (National Center for Advancing Translational Sciences (NCATS), 2018).
Only a part is listed here, and it is no random draw. The source made the active and inactive calls.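 How the source made its calls: active means activity change of -60% or lower, but not beyond a set lower limit; inconclusive means change between -60% and -40%, or beyond the set limit; inactive means change above -40%.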
On the % scale 0 is the no-effect control and ±100 the full control effect.

Amino acid sequences for entries named in this document (tags omitted).
UniProt Q9HBX9, whole entry: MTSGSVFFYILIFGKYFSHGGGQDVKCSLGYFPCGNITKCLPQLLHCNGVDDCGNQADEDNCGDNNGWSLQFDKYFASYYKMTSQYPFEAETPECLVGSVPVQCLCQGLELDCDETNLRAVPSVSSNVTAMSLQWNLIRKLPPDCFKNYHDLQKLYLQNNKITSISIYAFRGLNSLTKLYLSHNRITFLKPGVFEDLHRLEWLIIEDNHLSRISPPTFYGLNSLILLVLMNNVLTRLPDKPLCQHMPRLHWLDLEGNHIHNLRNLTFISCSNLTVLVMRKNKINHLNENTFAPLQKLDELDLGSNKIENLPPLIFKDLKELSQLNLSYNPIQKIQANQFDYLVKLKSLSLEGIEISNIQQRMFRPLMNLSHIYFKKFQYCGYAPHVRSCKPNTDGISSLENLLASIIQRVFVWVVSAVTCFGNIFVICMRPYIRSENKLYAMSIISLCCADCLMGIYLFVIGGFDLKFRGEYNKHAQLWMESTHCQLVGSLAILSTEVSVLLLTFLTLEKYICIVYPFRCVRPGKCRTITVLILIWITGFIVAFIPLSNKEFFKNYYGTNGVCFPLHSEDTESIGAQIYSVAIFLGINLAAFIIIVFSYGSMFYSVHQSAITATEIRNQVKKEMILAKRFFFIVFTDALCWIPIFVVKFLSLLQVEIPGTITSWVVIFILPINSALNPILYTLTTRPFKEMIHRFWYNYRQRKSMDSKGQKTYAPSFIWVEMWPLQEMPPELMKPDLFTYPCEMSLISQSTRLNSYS

Each compound was assayed against Relaxin receptor 1 (Homo sapiens) (UniProt Q9HBX9) (assay: qHTS Assay for Antagonists of the Relaxin Receptor RXFP1). Details: HEK293-RXFP1, relaxin-stimulated cAMP HTRF, 30 min; at 57.5 µM; stronger effect = lower value.
From the text: The relaxin hormone is involved in the variety of biological functions in normal tissues and diseases. The role of relaxin is well-established in female reproduction and parturition, mammary gland and endometrial development, maintenance of myometrial quiescence during pregnancy. Relaxin signaling through its G protein-coupled receptor (GPCR) RXFP1 results in ECM remodeling through regulation of collagen deposition, cell invasiveness, proliferation and overall tissue homeostasis. […] Recombinant human relaxin (rhRlx) is currently being tested in clinical trials as a protective agent in congestive heart failure, in treating severe preeclampsia, and as an anti-fibrotic agent in various organs. […] Upon relaxin binding RXFP1 activation leads to the activation of adenylate cyclase (AC) via G?s. cAMP will activate PKA, which phosphorylates many signaling proteins. Thus, detection of cAMP increase is an easy and reliable indication of relaxin receptor activation. To screen for antagonists of the relaxin receptor, a HEK293T cell line stably transfected with RXFP1 was used. RXFP1 activation by relaxin in presence of various concentrations of tested compounds was assayed by changes in cAMP levels as detected with a time-resolved fluorescence energy transfer (TR-FRET) cAMP detection kit.
For the primary screening, we used HTRF(R) (Homogenous Time-Resolved Fluorescence) cAMP HiRange assay (Cisbio Bioassays, 62AM6PEJ). Presence of cAMP in the cell lysate disrupts binding between the Cryptate-labeled anti-cAMP and d2-labeled cAMP pair, leading to a decrease in TR-FRET signal. […] The EC50 values were determined from concentration-response data modeled with the standard Hill equation. […] The plates were incubated at ambient temperature for 30 minutes and, then, FRET signal was read on Envision plate reader (PerkinElmer, Waltham, MA), at wavelengths 340nm (excitation), 615nm & 665nm (emission of donor and acceptor channels respectively).
With `CCC(=O)N(c1ccccc1)C1(COC)CCN(CCn2nnn(CC)c2=O)CC1` the activity change, negative = inhibition was inactive: 9.81%. In the case of `CCC(=O)N(c1ccccc1)C1(COC)CCN(CCc2cccs2)CC1`, the activity change, negative = inhibition is reported as inactive: -21.6%. With `CN(CCCl)CCCl` the activity change, negative = inhibition was inactive: 24.3%.
